Source: ChEMBL document CHEMBL5705888, “Substrate specificity and inhibitors of LRRK2, a protein kinase mutated in Parkinson's disease” (Biochem J, 2009)

The chains behind the UniProt entries cited, without tags or fusion partners.
UniProt Q5S007, whole entry G2019S: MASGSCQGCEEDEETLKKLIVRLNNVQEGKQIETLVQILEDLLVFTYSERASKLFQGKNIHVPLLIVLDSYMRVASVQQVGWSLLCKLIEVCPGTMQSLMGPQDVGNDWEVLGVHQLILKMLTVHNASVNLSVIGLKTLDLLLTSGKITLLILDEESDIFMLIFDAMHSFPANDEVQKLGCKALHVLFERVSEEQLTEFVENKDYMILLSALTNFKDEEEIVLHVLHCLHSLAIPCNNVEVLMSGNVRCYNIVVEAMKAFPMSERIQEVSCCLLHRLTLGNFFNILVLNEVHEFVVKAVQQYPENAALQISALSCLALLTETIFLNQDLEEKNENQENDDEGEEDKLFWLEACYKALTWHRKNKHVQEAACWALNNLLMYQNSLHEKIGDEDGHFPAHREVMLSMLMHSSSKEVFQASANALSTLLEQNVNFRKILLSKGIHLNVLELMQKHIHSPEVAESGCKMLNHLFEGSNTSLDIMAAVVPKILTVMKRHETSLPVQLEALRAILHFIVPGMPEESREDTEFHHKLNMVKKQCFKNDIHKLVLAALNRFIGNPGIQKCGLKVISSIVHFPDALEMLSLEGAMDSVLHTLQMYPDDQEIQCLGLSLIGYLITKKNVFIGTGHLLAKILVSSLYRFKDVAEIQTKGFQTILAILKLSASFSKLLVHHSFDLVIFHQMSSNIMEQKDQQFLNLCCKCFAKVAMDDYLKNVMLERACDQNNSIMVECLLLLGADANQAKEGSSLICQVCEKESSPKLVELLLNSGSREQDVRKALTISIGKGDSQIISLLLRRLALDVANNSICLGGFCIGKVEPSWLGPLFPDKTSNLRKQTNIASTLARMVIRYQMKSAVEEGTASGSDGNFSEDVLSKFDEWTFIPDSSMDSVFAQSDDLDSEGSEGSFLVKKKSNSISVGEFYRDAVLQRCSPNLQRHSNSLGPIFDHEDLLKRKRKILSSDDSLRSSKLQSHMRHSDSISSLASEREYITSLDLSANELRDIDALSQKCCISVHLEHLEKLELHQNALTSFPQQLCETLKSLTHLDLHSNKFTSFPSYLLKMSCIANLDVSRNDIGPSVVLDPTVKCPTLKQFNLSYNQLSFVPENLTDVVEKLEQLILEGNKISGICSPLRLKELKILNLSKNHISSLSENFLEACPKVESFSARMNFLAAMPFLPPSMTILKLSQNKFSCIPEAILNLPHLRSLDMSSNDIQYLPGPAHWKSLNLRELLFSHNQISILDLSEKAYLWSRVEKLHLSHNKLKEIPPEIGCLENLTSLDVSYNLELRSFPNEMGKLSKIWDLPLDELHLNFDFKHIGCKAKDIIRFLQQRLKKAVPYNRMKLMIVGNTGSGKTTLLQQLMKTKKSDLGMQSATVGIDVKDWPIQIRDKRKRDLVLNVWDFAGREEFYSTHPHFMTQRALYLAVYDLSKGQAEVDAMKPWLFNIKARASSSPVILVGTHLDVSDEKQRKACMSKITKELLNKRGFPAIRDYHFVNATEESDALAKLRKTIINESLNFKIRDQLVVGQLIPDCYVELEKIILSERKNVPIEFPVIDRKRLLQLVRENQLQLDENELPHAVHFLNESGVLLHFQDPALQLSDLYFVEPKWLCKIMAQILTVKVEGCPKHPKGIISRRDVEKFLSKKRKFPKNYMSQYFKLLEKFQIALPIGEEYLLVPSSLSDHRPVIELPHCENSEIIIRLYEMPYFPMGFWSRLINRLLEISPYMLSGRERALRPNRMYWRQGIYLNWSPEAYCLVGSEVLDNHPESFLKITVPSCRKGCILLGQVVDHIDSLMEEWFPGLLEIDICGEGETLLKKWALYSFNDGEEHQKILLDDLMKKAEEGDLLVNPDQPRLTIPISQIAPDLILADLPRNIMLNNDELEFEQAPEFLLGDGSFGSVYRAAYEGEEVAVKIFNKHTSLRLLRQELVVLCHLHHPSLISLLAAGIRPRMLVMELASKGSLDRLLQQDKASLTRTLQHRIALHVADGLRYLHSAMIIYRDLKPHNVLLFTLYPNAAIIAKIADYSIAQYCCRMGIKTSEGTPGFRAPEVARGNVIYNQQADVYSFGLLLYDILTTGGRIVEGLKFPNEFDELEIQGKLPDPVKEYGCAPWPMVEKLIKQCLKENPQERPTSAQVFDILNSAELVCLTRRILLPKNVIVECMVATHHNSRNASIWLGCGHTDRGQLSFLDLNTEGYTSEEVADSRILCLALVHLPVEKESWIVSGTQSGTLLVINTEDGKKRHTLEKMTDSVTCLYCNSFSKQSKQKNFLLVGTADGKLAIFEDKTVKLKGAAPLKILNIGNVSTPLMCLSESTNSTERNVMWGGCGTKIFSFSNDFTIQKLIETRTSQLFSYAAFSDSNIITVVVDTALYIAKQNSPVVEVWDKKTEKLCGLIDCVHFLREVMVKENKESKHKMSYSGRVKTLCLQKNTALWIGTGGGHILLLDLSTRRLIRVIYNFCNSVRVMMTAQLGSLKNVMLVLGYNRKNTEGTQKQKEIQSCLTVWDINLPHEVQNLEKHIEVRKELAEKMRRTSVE

Key:
[1] = biological target: Leucine-rich repeat serine/threonine-protein kinase 2 (Homo sapiens, UniProt Q5S007); experiment: Inhibition of LRRK2 (unknown origin) at 0.1 uM incubated for 30 mins in presence of [gamma-33P]ATP by multidrop micro reagent based assay relative to control
[2] = system: Leucine-rich repeat serine/threonine-protein kinase 2 (Homo sapiens), Q5S007 [G2019S]; experiment: Inhibition of LRRK2 G2019S mutant (unknown origin) at 0.1 uM incubated for 30 mins in presence of [gamma-33P]ATP by multidrop micro reagent based assay relative to control

SMILES: CCN(CC)CCNC(=O)c1c(C)[nH]c(/C=C2\C(=O)Nc3ccc(F)cc32)c1C
- inhibition [1]: 42%
- inhibition [2]: 14%
